Results from patent publication US11628225B2, “Antibody-drug conjugates” (CHO PHARMA INC., priority 2016, dated 2023).

System: BT474 cells
Experiment: Cytotoxicity assay (CellTiter-Glo, 5 d) in BT474 cells
Type: cell-based
Details: BT474, FIG. 9, tested concentrations

TRZ: IgG 1κ anti-HER2 trastuzumab TRZ; Herceptin, Roche (native Herceptin)
cytotoxicity: minimal cytotoxicity
